Source: patent US9023398B2, “Method for improving the aqueous solubility of poorly-soluble substances” (Kabushiki Kaisha Sangi, priority 2009, dated 2015)

Legend:
[1] = Dissolution test of poorly-soluble substances using 2nd fluid for disintegration test (pH 6.8) of the Japanese Pharmacopoeia; assay type: physicochemical
[2] = Dissolution test of poorly-soluble substances using distilled water
[3] = 2nd fluid for disintegration test, elution time 60 min
[4] = 2nd fluid for disintegration test, elution time 30 min
[5] = 2nd fluid for disintegration test, elution time 180 min

SMILES: CC(=O)Oc1ccccc1C(=O)O [Comparative Example 1-3, Aspirin]
- Dissolved amount [1, 3]: 6289.8 µg/mL
- Dissolved amount ([2]; elution time 30 min): 3084.0 µg/mL

SMILES: CNC[C@H](O)c1ccc(O)c(O)c1 [compound 29, Epinephrine]
- Dissolved amount [1]: 2107.4 µg/mL

SMILES: O=C1NC(=O)C(c2ccccc2)(c2ccccc2)N1 [compound 21, Phenyloin]
- Dissolved amount ([2]; elution time 30 min): 23.7 µg/mL
- Dissolved amount ([2]; elution time 120 min): 23.7 µg/mL

SMILES: CC1(C)[C@@H](O[C@H]2O[C@H](C(=O)O)[C@@H](O)[C@H](O)[C@H]2O[C@@H]2O[C@H](C(=O)O)[C@@H](O)[C@H](O)[C@H]2O)CC[C@]2(C)[C@H]3C(=O)C=C4[C@@H]5C[C@@](C)(C(=O)O)CC[C@]5(C)CC[C@@]4(C)[C@]3(C)CC[C@@H]12 [Comparative Example 16, Ammonium Glycyrrhizinate]
- Dissolved amount [1, 4]: 9673.9 µg/mL
- Dissolved amount [1, 3]: 10149.0 µg/mL
- Dissolved amount [1, 5]: 10469.7 µg/mL
- Dissolved amount ([1]; 2nd fluid for disintegration test, elution time 360 min): 10534.3 µg/mL
- Dissolved amount ([2]; elution time 10 min): 5945.2 µg/mL

SMILES: NC(N)=Nc1nc(CSCCC(N)=NS(N)(=O)=O)cs1 [Comparative Example 17, Famotidine]
- Dissolved amount [1, 5]: 2509.7 µg/mL

SMILES: CC(C)NCC(O)COc1cccc2[nH]ccc12 (centres unmarked) [compound 42, Pindolol]
- Dissolved amount ([1]; Pindolol, 2nd fluid for disintegration test, elution time 360 min): 3387.5 µg/mL

SMILES: C[C@]12C=CC(=O)C=C1CC[C@@H]1[C@@H]2[C@@H](O)C[C@@]2(C)[C@H]1CC[C@]2(O)C(=O)CO [compound 41, Prednisolone]
- Dissolved amount ([2]; Prednisolone, elution time 3 min): 356.0 µg/mL

SMILES: CC(=O)Nc1nnc(S(N)(=O)=O)s1 [compound 23, Acetazolamide]
- Dissolved amount ([1]; 2nd fluid for disintegration test, elution time 10 min): 1662.3 µg/mL
- Dissolved amount [1, 4]: 1681.5 µg/mL

SMILES: O=C(CCCN1CCC(O)(c2ccc(Cl)cc2)CC1)c1ccc(F)cc1 [compound 46, Haloperidol]
- Dissolved amount ([1]; Haloperidol, 2nd fluid for disintegration test, elution time 30 min): 45.2 µg/mL
- Dissolved amount ([2]; Haloperidol, elution time 120 min): 12.8 µg/mL
